Screening results deposited in PubChem BioAssay by National Center for Advancing Translational Sciences (NCATS).
IL-2 act – activates IL-2 in a cell-based reporter assay | actives 0.065% (n = 360,000) | IL-2 activation reporter assay, cell-based qHTS; stimulated with anti-CD3/CD4/CD28 beads; in transgenic mouse T cells | activation, % (series mostly up to about 46 µM); in the data active = activation above about 50%; inconclusive = mostly about 30% to 49%; also: 0% is about no effect
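Screening format: compound pinned onto unstimulated transgenic mouse T cells, 60 min incubation, then anti-CD3/anti-CD4/anti-CD28 bead stimulation for 18 hours at 37 degrees C, followed by EGFP and DsRed detection.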
A549 viability – counter-screen for Nrf2 inhibitors: cytotoxicity in A549 cells; Potency, µM (doses to about 46 µM), without a hit: at the top dose activity change, negative = cytotoxicity, most hits filed as inhibitors; AID 504648; actives 0.16% (n = 390,000); A549 ARE-Fluc cells, CellTiter-Fluor viability, 18-24 h; also: potency is read from the fitted curve at half-maximal effect; % is scaled to controls: 0 for no effect and ±100 for the full control effect
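A549 ARE-Fluc cells in 5% FBS OPTI-MEM, 5000 cells/well, rested 2 h then exposed to compounds in concentration-response for 18-24 h at 37 °C. Viability by CellTiter-Fluor fluorescence (Ex 405/Em 525) after 30 min; luciferase luminescence (BugLite, 15 min, RT) read afterwards.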
ClpP mod – qHTS Assay for Activators of ClpP | ATP-dependent Clp protease proteolytic subunit (Bacillus subtilis (strain 168)), P80244 | purified B. subtilis ClpP, FRET peptide cleavage, 20 min | Potency, µM (series often up to 57.5 µM), inactives show at the top dose activity change, negative = active | actives 1.9% (n = 340,000) | AID 651965, 2013; active = well fitted falling curve with a large enough effect; inconclusive = small, poorly fitted or top-dose-only effect; inactive = no such curve, though single readings can be large or run the other way; also: potency is read from the fitted curve at half-maximal effect; the source files actives as falling curves though it sought activators and does not explain the sign; nearly all actives have a fitted effect of over 65% in size
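FRET quenching reversal measured ClpP activation: 10 microg/mL B. subtilis ClpP at pH 8 with the FRET-FV decapeptide, read at 430 nm after 320 nm excitation. The 20-min minus 0-min signal was scaled between DMSO/no-enzyme wells and ADEP (5.8 microM final).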
miR-21 reporter – raises the signal of a miR-21 reporter. Potency, µM (highest dose often 38.3 µM), without a hit: top-dose reporter change, positive = more light. 340,000 tested, under 10 active. HeLa miR-21 FLuc reporter, luciferase, 48 h; active = well fitted rising curve with a large enough effect; inconclusive = small, poorly fitted or top-dose-only effect; inactive = no such curve, though single readings can be large or run the other way;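 further: % of control where 0% means no effect; miR-21 action dims this reporter so a rising signal means less miR-21 action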
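HeLa cells stably expressing CMV-driven firefly luciferase with a downstream miR-21 binding sequence, endogenously expressing miR-21, were treated with titrations (up to about 40uM final) for 48 hours at 37 degree Celsius. Luciferase luminescence was read after lysis.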
Nrf2 block – blocks Nrf2 signaling; Potency, µM (highest dose often 46 µM), without a hit: at the highest dose activity change, negative = inhibition, actives largely listed as inhibitors; A549 ARE-Fluc reporter, luciferase luminescence, 18-24 h; actives 2.1% (n = 360,000); AID 504444; also: potency is read from the fitted curve at half-maximal effect; % is scaled to controls: 0 for no effect and ±100 for the full control effect; nearly all actives have a fitted effect of over 60% in size
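Cells were seeded and rested 2 h, then exposed to compounds for 18-24 h. CellTiter-Fluor was read first as a viability measure. BugLite was added 15 min before the final luminescent read of ARE-luciferase activity in A549 cells.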
Nrf2 activator – Nrf2 pathway activation; Potency, µM (highest dose often 46.1 µM), for inactives: top-dose activation, usual class: activators; AREc32 ARE-luciferase reporter (MCF7-derived line), luminescence, 24 h; actives 0.31% (n = 410,000); AID 624171; also: potency is read from the fitted curve at half-maximal effect; % of control where 0% means no effect; nearly all actives have a fitted effect of over 65% in size
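Reporter line AREc32 (ARE-Fluc), seeded overnight in OPTI-MEM with 5% FBS; compound pin-transferred, 24 hr at 37 deg C, 5% CO2; luminescent read-out.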
Starred values were filed as active, the others as inactive; ? = inconclusive; · = no result. Hits are enriched below; roughly 3.7% of the tested compounds scored in any of these assays. Unless noted, calls follow the shape of the dose curve; as a rule, active = well fitted curve in the direction sought with a large enough effect; inconclusive = small, poorly fitted or top-dose-only effect, or another doubt; inactive = no such curve, though single readings can be large; an effect the other way counts as inactive or inconclusive.

Letter code – A = IL-2 act; B = A549 viability; C = ClpP mod; D = miR-21 reporter; E = Nrf2 block; F = Nrf2 activator
SMILES: O=C(Nc1ccccc1C(=O)O)c1ncn[nH]1
  A: -4.5 | B: -6.2% | C: 28.2µM* | D: -4.3% | E: 1.7% | F: -0.3%
SMILES: O=C(Nc1ccc(N2CCCCC2)c(Cl)c1)c1ncn[nH]1
  A: 0.6 | B: -0.8% | C: 0.5% | D: 18.6% | E: 8.2µM* | F: -0.4%
SMILES: CC(C)(C)c1ccc(NC(=O)CSc2nnc3scc(-c4ccccc4)n23)cc1
  A: · | B: -0.5% | C: -1.1% | D: 27.2% | E: 16.4µM* | F: 1.2%
SMILES: Cc1ccc(-c2nc(NC(=O)CSc3nnc4scc(-c5ccccc5)n34)ns2)cc1
  A: -2.9 | B: ? | C: -2.0% | D: -3.8% | E: 20.6µM* | F: 2.8%
SMILES: Cc1cc(Cl)ccc1OC(C)C(=O)Nc1ccc(S(=O)(=O)Nc2cnc3ccccc3n2)cc1 (stereo unspecified)
  A: -2.2 | B: -15.6% | C: -12.3% | D: -1.1% | E: 8.2µM* | F: -0.4%
SMILES: CN1/C(=C/C=C(C#N)C#N)C(C)(C)c2ccccc21
  A: 115.0* | B: -1.2% | C: -3.9% | D: 1.4% | E: 0.2% | F: -0.1%
SMILES: CN1/C(=C\C=Nc2ccc3ccccc3c2)C(C)(C)c2ccccc21
  A: · | B: · | C: · | D: -16.1% | E: · | F: ·
SMILES: Cc1cc(/N=C/C=C2\N(C)c3ccccc3C2(C)C)n(CCC#N)n1
  A: -2.1 | B: 14.6µM* | C: -1.8% | D: 17.7% | E: ? | F: 0.6%
SMILES: CCc1cccc(C)c1NC(=O)C1CCN(S(=O)(=O)Cc2ccccc2)CC1
  A: · | B: 18.6% | C: 0.3% | D: -16.9% | E: 11.4% | F: 4.0%
SMILES: Cc1ccc(S(=O)(=O)N(CC(=O)N/N=C/c2cccc3c2OCCO3)c2ccccc2F)cc1
  A: 0.3 | B: 1.4% | C: 22.4µM* | D: 0.2% | E: -24.7% | F: 7.6%
SMILES: Cc1ccc(S(=O)(=O)N(CC(=O)N/N=C/c2cccc(C)c2)c2cccc3cccnc23)cc1
  A: 0.5 | B: -4.5% | C: 25.1µM* | D: -7.7% | E: · | F: -0.1%
SMILES: COc1ccc(NC(=O)CN(c2ccccc2F)S(=O)(=O)c2ccc(C)cc2)cc1
  A: 0.3 | B: 2.1% | C: -0.6% | D: 4.8% | E: 5.7% | F: 0.1%
SMILES: CCOc1ccc(NC(=O)Nc2nnc(N3CCCCC3C)s2)cc1 (stereo unspecified)
  A: · | B: -1.5% | C: 0.5% | D: 17.2% | E: ? | F: -1.2%
SMILES: Fc1ccc(-n2cc(CNCCc3cccnc3)c(-c3ccccc3Cl)n2)cc1
  A: -0.6 | B: ? | C: 28.2µM* | D: -1.1% | E: ? | F: 3.3%
SMILES: CC(C)CC(O)C(=O)Nc1cc(C(F)(F)F)ccc1Cl (stereo unspecified)
  A: · | B: -6.1% | C: · | D: · | E: -5.7% | F: ·
SMILES: O=C(CNC(=O)c1cccc(Cl)c1)OC(C(=O)Nc1cc(C(F)(F)F)ccc1Cl)c1ccccc1 (stereo unspecified)
  A: · | B: -25.4% | C: · | D: · | E: 23.1µM* | F: ·
SMILES: O=C(NC(=S)Nc1cc(C(F)(F)F)ccc1Cl)c1ccccc1
  A: -0.3 | B: 4.0% | C: -1.3% | D: -13.1% | E: ? | F: 3.16µM*
SMILES: O=C(Nc1cc(C(F)(F)F)ccc1Cl)[C@H](O)CCc1ccccc1
  A: · | B: ? | C: · | D: · | E: 25.9µM* | F: ·
SMILES: Oc1cc(O)c(/C=C/c2ccnc3ccccc23)c(O)c1
  A: · | B: · | C: 0.2% | D: · | E: · | F: ·
SMILES: Cc1ccc(C(NC(=O)NC(C)c2ccccc2)C(Cl)(Cl)Cl)cc1F (stereo unspecified)
  A: -3.6 | B: ? | C: -3.0% | D: ? | E: 16.4µM* | F: 1.0%

Arranged by molar mass (lowest first): some entries from above
Letter code – A = IL-2 act; B = A549 viability; C = ClpP mod; D = miR-21 reporter; E = Nrf2 block; F = Nrf2 activator
SMILES: O=C(Nc1ccccc1C(=O)O)c1ncn[nH]1
  A: -4.5 | B: -6.2% | C: 28.2µM* | D: -4.3% | E: 1.7% | F: -0.3%
SMILES: CN1/C(=C/C=C(C#N)C#N)C(C)(C)c2ccccc21
  A: 115.0* | B: -1.2% | C: -3.9% | D: 1.4% | E: 0.2% | F: -0.1%
SMILES: CC(C)(C)c1ccc(NC(=O)CSc2nnc3scc(-c4ccccc4)n23)cc1
  A: · | B: -0.5% | C: -1.1% | D: 27.2% | E: 16.4µM* | F: 1.2%

(next part)
Letter code – A = IL-2 act; B = A549 viability; C = ClpP mod; D = miR-21 reporter; E = Nrf2 block; F = Nrf2 activator
SMILES: O=C1CCc2cc([S+](=O)([O-])Nc3ccc(N[S+](=O)([O-])c4ccc5c(c4)CCC(=O)N5)cc3)ccc2N1
  A: · | B: 12.4% | C: · | D: · | E: -16.8% | F: ·
SMILES: COCCn1c(-c2ccc(Cl)cc2Cl)nc2c(c(=O)c3ccccc3n2C)c1=O
  A: -3.0 | B: 5.4% | C: 14.1µM* | D: -7.2% | E: 4.9% | F: 0.2%
SMILES: CC(=O)Nc1ccc(NC(=O)C(C)OC(=O)c2cccc(S(=O)(=O)N3CCCCCC3)c2)cc1 (stereo unspecified)
  A: 0.3 | B: -12.1% | C: 1.5% | D: · | E: -26.7% | F: -0.4%
SMILES: CC(=O)Nc1ccc(NC(=O)C(C)OC(=O)c2cccc(S(=O)(=O)N3CCCCC3)c2)cc1 (stereo unspecified)
  A: -1.8 | B: -14.1% | C: 28.2µM* | D: -7.3% | E: -11.6% | F: -0.1%
